Laboratory results taken from ChEMBL document CHEMBL1125797, “Synthesis, characterization and myocardial uptake of cationic bis(arene)technetium(I) complexes” (J Med Chem, 1991).

Assays:
[1] = test system: Rattus norvegicus; assay: (§1) Biodistribution of compound in rat brain after 5 min of administration; format: ADME, organism-based; conditions: in vivo
In short: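 Female Sprague-Dawley rats (150–200 g) received the complex in normal saline (~12.5 μCi/mL) through a lateral tail vein at ~25 μCi/kg. Rats were killed by cervical dislocation 5 min after injection. Tissues were washed with saline, blotted, weighed and γ-counted to give percent injected dose/g tissue.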

[2] = test system: Rattus norvegicus; assay: as §1; format: ADME, organism-based; conditions: in vivo; remark: listed apart in the source

Substance	Dose/g [1] [%]	Dose/g [2] [%]
Bis(m-xylene)technetium	0.01	
Bis(toluene)technetium	0.01	
BIS(TOLUENE)TECHNETIUM		0.03
